Measured values reported in PMC8471380 (Molecules, 2021).

Sequences of proteins named here, by UniProt entry; tags and fusion partners are left off. Residues count along the entry.
UniProt Q00960, 27-1482: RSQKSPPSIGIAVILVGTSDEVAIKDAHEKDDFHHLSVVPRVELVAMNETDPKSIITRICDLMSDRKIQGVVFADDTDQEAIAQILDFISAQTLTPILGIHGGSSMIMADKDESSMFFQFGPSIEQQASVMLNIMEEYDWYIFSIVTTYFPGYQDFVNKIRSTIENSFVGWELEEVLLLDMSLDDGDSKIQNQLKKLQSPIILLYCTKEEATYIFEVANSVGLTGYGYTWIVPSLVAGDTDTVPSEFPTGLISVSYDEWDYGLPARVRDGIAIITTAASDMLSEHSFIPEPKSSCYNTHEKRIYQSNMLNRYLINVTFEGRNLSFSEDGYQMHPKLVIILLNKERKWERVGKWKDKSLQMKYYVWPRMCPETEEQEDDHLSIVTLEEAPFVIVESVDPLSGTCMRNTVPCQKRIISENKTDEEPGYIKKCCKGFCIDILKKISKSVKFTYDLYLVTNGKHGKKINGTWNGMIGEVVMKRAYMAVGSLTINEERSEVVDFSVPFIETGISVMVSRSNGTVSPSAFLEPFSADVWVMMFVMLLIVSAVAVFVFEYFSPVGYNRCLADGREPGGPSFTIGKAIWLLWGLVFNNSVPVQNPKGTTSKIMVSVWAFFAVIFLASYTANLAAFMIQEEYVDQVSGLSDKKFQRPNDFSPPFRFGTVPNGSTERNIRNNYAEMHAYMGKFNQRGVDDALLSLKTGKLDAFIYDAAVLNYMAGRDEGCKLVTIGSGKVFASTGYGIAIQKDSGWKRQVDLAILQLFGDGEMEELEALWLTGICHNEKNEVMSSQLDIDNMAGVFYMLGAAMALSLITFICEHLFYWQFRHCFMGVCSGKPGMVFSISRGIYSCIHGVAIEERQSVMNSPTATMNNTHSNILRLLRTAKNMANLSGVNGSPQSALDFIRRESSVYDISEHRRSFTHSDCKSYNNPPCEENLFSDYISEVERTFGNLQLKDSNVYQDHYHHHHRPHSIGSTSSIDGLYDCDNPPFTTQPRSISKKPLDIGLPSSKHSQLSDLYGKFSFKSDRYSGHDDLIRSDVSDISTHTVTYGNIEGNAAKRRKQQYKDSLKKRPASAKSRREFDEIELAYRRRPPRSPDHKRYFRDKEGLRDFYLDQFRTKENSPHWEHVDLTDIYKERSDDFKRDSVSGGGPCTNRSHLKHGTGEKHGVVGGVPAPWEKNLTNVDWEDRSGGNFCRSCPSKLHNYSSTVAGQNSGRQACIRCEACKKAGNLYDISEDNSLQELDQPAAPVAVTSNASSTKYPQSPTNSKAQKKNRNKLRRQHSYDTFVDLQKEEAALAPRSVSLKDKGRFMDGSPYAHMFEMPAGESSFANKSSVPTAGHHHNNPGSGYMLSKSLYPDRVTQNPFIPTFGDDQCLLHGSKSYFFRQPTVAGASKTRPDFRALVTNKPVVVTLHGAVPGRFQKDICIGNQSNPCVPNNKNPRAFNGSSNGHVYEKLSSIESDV

Legend:
[1] = biological target: T1, MK-801-binding (intrachannel) site of NMDA receptor (Rattus norvegicus, UniProt P35439); test: Radioligand binding assay, [3H]MK-801 displacement
T1 construct: from tissue; host or cells: rat hippocampus membranes

[2] = biological target: T2, ifenprodil-binding site of NMDA receptor (NR2B subunit) (Rattus norvegicus, UniProt P35439+Q00960); test: Radioligand binding assay, [3H]ifenprodil displacement
T2 construct: from tissue; host or cells: rat hippocampus membranes

CC12CC3CC(C)(C1)CC(N)(C3)C2 [memantine, reference compound]
Ki [1]: 0.8 ± 0.1 µM
Ki [2]: 115 ± 6.5 µM
